Earlier results, collected in patent US5840770A, “Method of killing tumor cells” (Hill Medical Corporation, priority 1997, dated 1998).

Test system: colon and kidney cancer and malignant melanoma
Details: cited from earlier work

## IL-2: produced by helper T cells
Amounts most helpful in dealing with the tumor
  toxicity: toxic in the amounts most helpful in dealing with the tumor
human, in vivo
  toxic effects: malaise, fever, nausea or vomiting, diarrhea and anemia
Lymphocytes activated in vitro by IL-2 plus additional IL-2
  patients showing at least some response: About 20 % of the patients
